In the NIST ThermoML archive (doi:10.1021/acs.jced.9b00350):

Columns and labels:
[1] = Crystal; DSC
[2] = Molar enthalpy of transition or fusion; details: Crystal; DSC

Triple point temperature [1]: 383.65 ± 0.93 K
Molar enthalpy of transition or fusion [2]: 5.23 ± 0.167 kcal/mol
SMILES: NC(=O)c1ccccc1N [anthranilamide]

± gives the expanded uncertainty stated by the source.
